In paper PMC6561105 (Journal of medicinal chemistry, 2019):

How the values were obtained:
[1] = system: HOXA9/DNA binding (HBS, HOXA9-binding site); design: species or system human; conditions: ELISA-derived assay and EMSA, Figure 1; SAR discussion
[2] = system: HOXA9 binding to Akap13-HBS sequence
HOXA9/HBS complex = assay type: binding, human; conditions: for inhibition of HOXA9/DNA binding: 2.5 µM

2-(5-(4-Carbamimidoylphenyl)thiophen-2-yl)quinoline-6-carboximidamide trihydrochloride [DB1504]
HOXA9/DNA binding inhibition (in words) [1]: strongly alters its propensity to inhibit

N=C(N)c1ccc(-c2ccc(-c3nc4cc(C(=N)N)ccc4[nH]3)o2)cc1 [DB293, reference compound]
HOXA9/DNA binding inhibition (in words) [1]: strongly reduces HOXA9 inhibition efficacy

N=C(N)c1ccc(-c2ccc(-c3nc4ccc(C(=N)N)cc4[nH]3)s2)cc1 [DB818]
inhibition of HOXA9 binding to Akap13-HBS [2]: inhibited

N=C(N)c1ccc(-c2ccc(-c3nc4cc(C(=N)N)ccc4o3)o2)cc1 [DB828]
HOXA9/DNA binding inhibition (in words) [1]: failed to inhibit
sub-group for HOXA9/DNA binding inhibition (HOXA9/HBS complex): inactive

N=C(Nc1ccc(-c2ccc(-c3ccc(NC(=N)c4ccccn4)cc3)[nH]2)cc1)c1ccccn1 [DB883]
sub-group for HOXA9/DNA binding inhibition (HOXA9/HBS complex): Medium

N=C(Nc1ccc(-c2ccc(-c3ccc(NC(=N)c4ccccc4)cc3)[nH]2)cc1)c1ccccc1 [DB884]
inhibition of HOXA9/DNA binding (HOXA9/HBS complex): > 90%

N=C(N)c1ccc(-c2ccc(-c3nc4ccc(C(=N)N)cc4[nH]3)o2)nc1 [DB915, 2-[5-(5-Amidinopyridin-2-yl)furan-2-yl]-1H-benzimidazole-6-amidine acetate]
HOXA9/DNA binding inhibition (in words) [1]: strongly reduces HOXA9 inhibition efficacy

N=C(N)c1cccc(-c2ccc(-c3nc4cc(C(=N)N)ccc4[nH]3)cc2)c1 [DB1055]
inhibition of HOXA9 binding to Akap13-HBS [2]: inhibited

N=C(N)c1ccc(-c2ccc(-c3cc4ccc(C(=N)N)cc4[nH]3)s2)cc1 [DB1879, 2-(5-(4-Carbamimidoylphenyl)thiophen-2-yl)-1H-indole-6-carboximidamide diydrochloride]
inhibition of HOXA9/DNA binding (HOXA9/HBS complex): > 90%

Cn1c(-c2ccc(-c3ccc(C(=N)N)cc3)s2)nc2cc(C(=N)N)ccc21 [DB2429]
HOXA9/DNA binding inhibition (in words) [1]: inactive

Cn1c(-c2ccc(-c3ccc(C(=N)N)cc3)o2)nc2cc(C(=N)N)ccc21 [DB2430]
HOXA9/DNA binding inhibition (in words) [1]: inactive

N=C(N)c1ccc(-c2ccc(-c3cc4ccc(C(=N)N)cc4[nH]3)s2)nc1 [DB2529, 2-(5-(5-Carbamimidoylpyridin-2-yl)thiophen-2-yl)-1H-indole-6-carboximidamide trihydrochloride]
inhibition of HOXA9/DNA binding (HOXA9/HBS complex): > 90%

N=C(N)c1ccc(-c2cnc(-c3nc4ccc(C(=N)N)cc4[nH]3)s2)cc1 [DB2651, 2-(5-(4-Carbamimidoylphenyl)thiazol-2-yl)-1H-benzo[d]imidazole-6-carboximidamide trihydrochloride]
HOXA9/DNA binding inhibition (in words) [1]: strongly reduces HOXA9 inhibition efficacy

CC(C)n1c(-c2ccc(-c3ccc(C(=N)N)cc3)s2)nc2cc(-c3ccc(C(=N)N)cc3)ccc21 [DB2708]
HOXA9/DNA binding inhibition (in words) [1]: strongly alters its propensity to inhibit

Structures can show the parent of a compound that is named as a salt.
